{"source": "patent US11090305B2", "about": "“Methods and compositions to reduce oxidative stress” (University of Massachusetts, priority 2009, dated 2021)", "system": "ApoE^−/−-derived HSCs", "experiment": "HSC transplantation into lethally irradiated WT recipients", "assay_type": "in vivo, mouse", "conditions": "12 weeks after transplant; ApoE^−/− donors pretreated 4 weeks", "protocol": "HSC were purified from freshly harvested bone marrow mononuclear cells as c-Kit^+Sca-1^+CD90.1^lowLin^− by FACS sorting. Recipient mice were C57BL/6 (WT) on standard chow. Recipients underwent lethal irradiation (1100 Rads delivered in 2 doses 3 hr apart). Immediately after the 2nd irradiation, recipients were anesthetized (2% isoflurane) and 10^6 HSC/0.1 ml sterile PBS were transplanted via retro-orbital injection. Mice were followed for 12 weeks before study or administration of AOM.\nIt was next determined the oxidant status of HSCs transplanted into WT mice. To this end, lethally irradiated WT mice were transplanted with HSCs from WT or ApoE^−/− mice, or with HSCs harvested from ApoE^−/− mice pretreated with NAC for 4 weeks. […] FIGS. 53A-53E show HSCs harvested from WT recipient mice 12 weeks after transplantation with ApoE^−/−-derived HSCs retain evidence of oxidant stress. […] (B,C) The percentage of HSC and T-cell progenitor cells in total bone marrow cells were higher in the ApoE^−/−→WT transplant group than in the ApoE^−/−+NAC→WT or the WT→WT transplant groups. (D,E) The percentage of γδT cells and NKT cells in the thymus and peripheral blood were less in the ApoE^−/−→WT transplant group than in the ApoE^−/−+NAC→WT or the WT→WT transplant groups. […]"}
{"smiles": "CC(=O)N[C@@H](CS)C(=O)O", "note": "[NAC, N-acetylcysteine]", "values": [{"measurement": "percentage of HSC with DCF-DA staining >isotype in WT recipients", "value": "higher in the ApoE^−/−≥WT transplant group than in the ApoE^−/−+NAC→WT or the WT→WT transplant groups"}]}
